Data taken from ChEMBL document CHEMBL1152684, “Antitumor antibiotic fostriecin covalently binds to cysteine-269 residue of protein phosphatase 2A catalytic subunit in mammalian cells” (Bioorg Med Chem, 2009).

Experiments:
[1] = Selectivity for protein phosphatase 2A over protein phosphatase 1
[2] = Selectivity for protein phosphatase 2A over protein phosphatase 2B
[3] = Selectivity for protein phosphatase 2A over protein phosphatase 5

Ratio IC50 [1]: > 100000 | Selectivity ratio [2]: > 1e+06 | Selectivity ratio [3]: > 100000
SMILES: C[C@@](O)(/C=C/[C@H]1CC=CC(=O)O1)[C@@H](C[C@@H](O)\C=C/C=C\C=C\CO)OP(=O)(O)O [FOSTRIECIN]
